Assay results from US9062045B2, “Triazolopyridine compounds” (Novartis AG, priority 2012, dated 2015).

Test system: GTL16 cells
Test: GTL16 cell viability assay (CellTiter Glo)
Settings: read-out: GTL-16 Proliferation IC50

Structure (SMILES)	IC50 [nM]
Cn1cc(-c2cnc3ccc(Sc4nnc5c(F)cc(-c6cnn(C)c6)cn45)cc3c2)cn1 [Reference Example No. 66, 6-(8-fluoro-6-(1-methyl-1H-pyrazol-4-yl)-[1,2,4]triazolo[4,3-a]pyridin-3-ylthio)-3-(1-methyl-1H-pyrazol-4-yl)quinoline, reference compound]	3
Cn1cc(-c2ccc3nnc(Sc4ccc5ncccc5c4)n3c2)cn1 [Reference Example No. 63, 6-(6-(1-methyl-1H-pyrazol-4-yl)-[1,2,4]triazolo[4,3-a]pyridin-3-ylthio)quinoline, reference compound]	8
C/C(=N\OCCO)c1ccc2nnc(Sc3ccc4ncc(N5CCOCC5)cc4c3)n2c1 [Example 78, (E)-1-(3-((3-Morpholin-4-yl-quinolin-6-yl)thio)-[1,2,4]triazolo[4,3-a]pyridin-6-yl)ethanone O-(2-hydroxyethyl)oxime]	3
C/C(=N\OCCO)c1ccc2nnc(Sc3ccc4ncc(CN5CCOCC5)cc4c3)n2c1 [Example 80, (E)-1-(3-((3-(Morpholin-4-yl-methyl)quinolin-6-yl)thio)-[1,2,4]triazolo[4,3-a]pyridin-6-yl)ethanone O-(2-hydroxyethyl)oxime]	125
CC1COCCN1c1cnc2ccc(Sc3nnc4ccc(-c5cnn(C)c5)cn34)cc2c1 (centres unmarked) [Example 59, 3-Methyl-4-(6-(6-(1-methyl-1H-pyrazol-4-yl)-[1,2,4]triazolo[4,3-a]pyridin-3-ylthio)quinolin-3-yl)-morpholine]	11
